# Reference: patent US6881414B2, “Mild cosmetic composition with stabilized retinoids” (Unilever Home & Personal Care USA, division of Conopco, Inc., priority 2000, dated 2005)
# Target: T1, LRAT (Bos taurus, UniProt Q9BGL2)
# T1 construct: followed by approximately 15 μg of RPE microsomal protein; tissue W. L. Lawson Co; host or cells: bovine retinal pigment epithelium microsomes
# T1 sequence (Q9BGL2 1-230): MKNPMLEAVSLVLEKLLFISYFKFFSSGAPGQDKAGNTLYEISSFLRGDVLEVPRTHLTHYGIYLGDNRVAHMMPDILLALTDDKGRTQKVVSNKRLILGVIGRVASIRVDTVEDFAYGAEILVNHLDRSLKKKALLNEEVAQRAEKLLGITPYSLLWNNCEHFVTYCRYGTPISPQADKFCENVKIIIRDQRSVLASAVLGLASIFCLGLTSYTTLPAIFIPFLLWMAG
# Test: LRAT activity assay, RPE microsomes (to identify B1)
# Format: biochemical, bovine
# Conditions: compound 100 μm
smiles,measurement,value
CC1=CCC(C(C)(C)O)CC1 (stereo not drawn) [Alpha-Terpineol],% Inhibition LRAT (100 μm),25%
